# Test results: patent US6369101B1, “Therapeutic method to treat herpes virus infection” (Regents of the University of Minnesota, priority 1999, dated 2002)
# How the values were obtained:
# HFF cells = experiment: CC50 in HFF cells (Table 3); format: cell-based, human
# Method: The cells were observed daily for any change in morphology. The rounding and lysis of cells were observed if the compound has cytotoxic effect. At the end of this time, the media-drug solution was removed and the cells washed. […] The cells-media mixture was then pipetted up and down several times to resuspend the cells and 0.2 ml of the cell suspension was added to 9.8 ml of trypan blue and cells were counted using hemocytometer. Each sample was counted three times with three replicate wells per sample.
# Daudi cells = experiment: CC50 in Daudi cells (Table 3); format: cell-based; settings: Epstein-Barr Virus section of Table 3
# [1] = test system: Primary human foreskin fibroblast cells (HFF); experiment: Cell proliferation assay (cytotoxicity) in HFF cells; format: cell-based
# Method: (§1) Human laryngeal epithelial carcinoma cells (HEp-2, ATCC, Rockville, Md.) were used for testing of antiviral compounds by cytopathic effect (CPE) inhibition and plaque reduction assay. […] HEp-2, African green monkey kidney cells (Vero, ATCC), HFF and primary rabbit kidney cells were used to determine the cytotoxic effect of compounds of formula I. These cells were propagated in Dulbeco's modified Eagle's medium (DMEM) (Sigma, USA) supplemented with 10% inactivated fetal calf serum (FCS), 25 mM HEPES, 0.2% sodium bicarbonate and 1% penicillin/-streptomycin at 37° C. in the presence of 5% CO2.
# (§2) HFF, Vero and HEp-2 cells were seeded in 24-well tissue culture plates at a concentration of […] in DMEM containing 10% FCS and incubated for 24 hours at 37° C. in the presence of 5% CO2. To the monolayer of these cells 0.5, 1.0, 1.5 and 2.0 ml of solution of antiviral compounds were added in the respective wells in duplicate and the cells were then incubated in a 5% CO2 incubator at 37° C. for 72 hours. The cells were observed daily for any change in morphology. […] The cells-media mixture was then pipetted up and down several times to resuspend the cells and 0.2 ml of the cell suspension was added to 9.8 ml of trypan blue and cells were counted using hemocytometer. Each sample was counted three times with three replicate wells per sample.
# [2] = test system: Human laryngeal epithelial carcinoma cells (HEp-2); experiment: Cytotoxicity in HEp-2 cells; format: cell-based; settings: conc. per compound (ng/ml)
# Method: as §1, §2
# [3] = test system: Primary Rabbit Kidney cells; experiment: Cytotoxic effect in primary rabbit kidney cells; format: cell-based
# Method: as §1, §2
Substance,CC50 (HFF cells; Human Cytomegalovirus section of Table 3) [µg/mL],CC50 (HFF cells; Varicella-Zoster Virus section of Table 3) [µg/mL],CC50 (Daudi cells) [µg/mL],Qualitative Cytotoxic Effect at 2.0 ml dose ([1]; Conc. 12500 ng/ml),Qualitative Cytotoxic Effect at 2.0 ml dose ([1]; solution conc. per compound (ng/ml) (Acyclovir 250)),Cell Cytotoxicity [2],cytotoxicity (in words) [3]
Betulin glycerol oxalate,>0.1,0.0635,>0.05,,,,
"acycloguanosine [Acyclovir, reference compound]",,,,−,−,−,No cytotoxicity
